Laboratory results taken from patent US8815891B2, “Tricyclic derivative or pharmaceutically acceptable salts thereof, preparation method thereof, and pharmaceutical composition containing the same” (Je Il Pharmaceutical Co., Ltd., priority 2008, dated 2014).

By UniProt entry, the sequences of proteins in these tests, tags left out.
UniProt P09874, whole entry: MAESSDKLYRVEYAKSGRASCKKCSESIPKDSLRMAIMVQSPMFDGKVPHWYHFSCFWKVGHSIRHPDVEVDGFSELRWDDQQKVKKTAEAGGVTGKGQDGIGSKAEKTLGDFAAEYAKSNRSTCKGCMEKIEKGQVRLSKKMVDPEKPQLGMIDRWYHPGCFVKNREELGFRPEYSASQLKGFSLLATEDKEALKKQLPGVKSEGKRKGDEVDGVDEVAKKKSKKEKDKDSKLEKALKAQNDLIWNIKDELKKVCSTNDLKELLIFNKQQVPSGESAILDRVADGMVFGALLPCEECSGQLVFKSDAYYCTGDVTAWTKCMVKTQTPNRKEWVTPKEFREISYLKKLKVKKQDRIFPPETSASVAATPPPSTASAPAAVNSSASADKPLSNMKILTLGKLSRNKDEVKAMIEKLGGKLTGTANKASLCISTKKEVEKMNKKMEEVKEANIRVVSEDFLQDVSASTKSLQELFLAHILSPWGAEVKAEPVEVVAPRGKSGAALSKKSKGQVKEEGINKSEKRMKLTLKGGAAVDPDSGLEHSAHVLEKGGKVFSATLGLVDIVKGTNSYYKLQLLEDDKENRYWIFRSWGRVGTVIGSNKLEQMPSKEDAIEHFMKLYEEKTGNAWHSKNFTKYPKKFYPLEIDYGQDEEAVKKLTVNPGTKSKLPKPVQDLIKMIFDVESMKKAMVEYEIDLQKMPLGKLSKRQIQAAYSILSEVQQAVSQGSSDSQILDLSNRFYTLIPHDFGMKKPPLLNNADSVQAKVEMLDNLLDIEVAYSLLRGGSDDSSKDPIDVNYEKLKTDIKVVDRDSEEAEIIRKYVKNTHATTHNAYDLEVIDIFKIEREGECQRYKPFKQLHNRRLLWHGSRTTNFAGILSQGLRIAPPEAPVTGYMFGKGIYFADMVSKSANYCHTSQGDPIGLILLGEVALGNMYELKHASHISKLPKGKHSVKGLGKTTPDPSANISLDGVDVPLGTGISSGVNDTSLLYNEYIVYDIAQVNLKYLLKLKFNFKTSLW

Target: PARP-1 enzyme (Homo sapiens (Human), UniProt P09874)
Assay: Poly(ADP-ribose)polymerase [PARP-1] enzyme inhibitory activity (Trevigen PARP Assay kit)
Assay type: biochemical
Details: read-out: PARP-1 Inhibitory activity IC50; tested form: 2HCl

## O=C(NCCN1CCCCC1)c1ccc2[nH]c(=O)c3c(c2c1)NCCC3
  IC50: 1050 nM
